This note sets out measurements from patent publication US20030224416A1, “Schizophrenia related gene” (priority 2002, published 2003).

The structures appear in SMILES notation.

The assay relates to Kv3.1 α-subunit mRNA. The assay can be described thus: Experiment 1: in situ hybridization of Kv3.1 α-subunit mRNA in brain, chronic PCP rat model of schizophrenia with antipsychotic co-treatment. Type of assay: in vivo.

Regarding `Cc1cc2c(s1)Nc1ccccc1N=C2N1CCN(C)CC1` [Olanzapine, olanzapine], the “Kv3.1 α-subunit mRNA expression” value stood at 24.21 ± 1.23 PSL/mm^2 (CA2pd, PCP + drug 3 mg/kg/day); 6.87 ± 0.38 PSL/mm^2 (DLStr, PCP + drug 0.3 mg/kg/day); 6.99 ± 0.43 PSL/mm^2 (DLStr, PCP + drug 1 mg/kg/day); 6.70 ± 0.59 PSL/mm^2 (DLStr, PCP + drug 10 mg/kg/day); 13.72 ± 0.78 PSL/mm^2 (M2, PCP + drug 0.3 mg/kg/day); 12.57 ± 0.94 PSL/mm^2 (M2, PCP + drug 1 mg/kg/day). In addition, the “Kv3.1 α-subunit mRNA expression” value (M2, PCP + drug 10 mg/kg/day) came out at 13.14 ± 0.99 PSL/mm^2; the “Kv3.1 α-subunit mRNA expression” value (MG, PCP + drug 1 mg/kg/day) is 25.50 ± 1.46 PSL/mm^2; the “Kv3.1 α-subunit mRNA expression” value (MG, PCP + drug 10 mg/kg/day) stood at 25.78 ± 0.77 PSL/mm^2; the “Kv3.1 α-subunit mRNA expression” value (MM, PCP + drug 0.3 mg/kg/day) is 25.36 ± 2.25 PSL/mm^2; the “Kv3.1 α-subunit mRNA expression” value (MM, PCP + drug 1 mg/kg/day) worked out at 25.76 ± 1.27 PSL/mm^2; the “Kv3.1 α-subunit mRNA expression” value (MM, PCP + drug 3 mg/kg/day) turned out to be 25.24 ± 2.32 PSL/mm^2. Also, the “Kv3.1 α-subunit mRNA expression” value reads like this: (PrL, PCP + drug 0.3 mg/kg/day) 12.50 PSL/mm^2; (PrL, PCP + drug 1 mg/kg/day) 12.78 PSL/mm^2; (PrL, PCP + drug 3 mg/kg/day) 13.18 PSL/mm^2; (PrL, PCP + drug 10 mg/kg/day) 12.66 PSL/mm^2; (SN, PCP + drug 1 mg/kg/day) 13.98 ± 0.96 PSL/mm^2; (SN, PCP + drug 3 mg/kg/day) 13.09 ± 0.44 PSL/mm^2. The “Kv3.1 α-subunit mRNA expression” value reads like this: (SN, PCP + drug 10 mg/kg/day) 12.54 ± 0.68 PSL/mm^2; (VMStr, PCP + drug 0.3 mg/kg/day) 7.33 PSL/mm^2; (VMStr, PCP + drug 1 mg/kg/day) 6.88 ± 0.46 PSL/mm^2.
